Measurements: US20260382772A1, “KETO-AMIDE-BASED FIBROBLAST ACTIVATION PROTEIN-TARGETED LIGAND LINKED TO AN IMAGING OR THERAPEUTIC AGENT, COMPOSITIONS, AND METHODS OF USE” (published 2026)

Test system: 4T1 tumor bearing mice
Test: Dosimetry analysis using OLINDA software, 4T1 tumor
Conditions: ^111In
Procedure: From the ex vivo biodistribution data obtained from the ^111In/^177Lu-FAP8-PEG3-IP-DOTA in 4T1 and HEK-FAP tumor bearing mice, the total absorbed radiation dose coefficients (mGy/MBq were calculated using OLINDA 2.2.3 software (Tables 9-12).
FIGS. 36A and 36B show comparison data related to the total absorbed dose coefficient in selected organs (blood, heart, lungs, liver, spleen, kidney's bone marrow, and tumor). Dose estimates for healthy organs such as blood, heart, lungs, liver, spleen, kidneys, and bone marrow were calculated assuming a 25 g mouse phantom, whereas for tumor dose estimates were calculated with the sphere model. Time-activity curves were fitted to the biodistribution data of each organ individually with exponential functions.

For `COc1ccc(CNC(=O)C(=O)[C@@H]2CC(F)(F)CN2C(=O)CNC(=O)c2ccnc3ccc(OCC(=O)NCCOCCOCCOCCNC(=O)[C@H](CCCCNC(=O)CCCc4ccc(I)cc4)NC(=O)CN4CCN(CC(=O)O)CCN(CC(=O)O)CCN(CC(=O)O)CC4)cc23)cc1OC.[In+3]`, which “Kinetics value, Blood” value (1.0 nmol/mouse) is on record?
Its value is 8.56E−1 MBq-h/MBq.

And the “Kinetics value, Bone Marrow” value (1.0 nmol/mouse)?
Its value is 3.25E−02 MBq-h/MBq.

What about the “Kinetics value, Heart” value (1.0 nmol/mouse) of the same compound?
Its value is 1.98E−1 MBq-h/MBq.

What about the “Kinetics value, Intestines” value (1.0 nmol/mouse) of the same compound?
The value was 1.95E−1 MBq-h/MBq.

What about the “Kinetics value, Kidneys” value (1.0 nmol/mouse) of the same compound?
The value was 4.49E−01 MBq-h/MBq.

And the “Kinetics value, Liver” value (1.0 nmol/mouse)?
The value was 2.02E0 MBq-h/MBq.

What about the “Kinetics value, Lung” value (1.0 nmol/mouse) of the same compound?
The value was 1.74E−1 MBq-h/MBq.

And the “Kinetics value, Spleen” value (1.0 nmol/mouse)?
The value was 4.85E−1 MBq-h/MBq.

And the “Kinetics value, Stomach” value (1.0 nmol/mouse)?
Its value is 1.35E−1 MBq-h/MBq.

What about the “Kinetics value, Tumor” value (1.0 nmol/mouse) of the same compound?
The value was 4.13E0 MBq-h/MBq.

What about the “Organ doses, Blood” value (1.0 nmol/mouse) of the same compound?
Its value is 1.01E02 mGy/MBq.

And the “Organ doses, Bone Marrow” value (1.0 nmol/mouse)?
The value was 1.09E01 mGy/MBq.

What about the “Organ doses, Heart” value (1.0 nmol/mouse) of the same compound?
The value was 4.00E01 mGy/MBq.

What about the “Organ doses, Intestines” value (1.0 nmol/mouse) of the same compound?
The value was 3.16E01 mGy/MBq.

And the “Organ doses, Kidneys” value (1.0 nmol/mouse)?
Its value is 4.74E01 mGy/MBq.

What about the “Organ doses, Liver” value (1.0 nmol/mouse) of the same compound?
Its value is 7.70E01 mGy/MBq.

And the “Organ doses, Lung” value (1.0 nmol/mouse)?
Its value is 2.11E01 mGy/MBq.

What about the “Organ doses, Spleen” value (1.0 nmol/mouse) of the same compound?
The value was 2.83E01 mGy/MBq.

And the “Organ doses, Stomach” value (1.0 nmol/mouse)?
The value was 1.76E01 mGy/MBq.

What about the “Organ doses, Tumor” value (1.0 nmol/mouse) of the same compound?
The value was 2.01E02 mGy/MBq.

What about the “Kinetics value, Blood” value (2.5 nmol/mouse) of the same compound?
The value was 5.86E−1 MBq-h/MBq.

What about the “Kinetics value, Bone Marrow” value (2.5 nmol/mouse) of the same compound?
Its value is 5.12E−2 MBq-h/MBq.

What about the “Kinetics value, Heart” value (2.5 nmol/mouse) of the same compound?
The value was 1.82E−1 MBq-h/MBq.

What about the “Kinetics value, Intestines” value (2.5 nmol/mouse) of the same compound?
Its value is 1.81E−1 MBq-h/MBq.

And the “Kinetics value, Liver” value (2.5 nmol/mouse)?
Its value is 2.09E0 MBq-h/MBq.

What about the “Kinetics value, Lung” value (2.5 nmol/mouse) of the same compound?
The value was 5.80E−1 MBq-h/MBq.

And the “Kinetics value, Spleen” value (2.5 nmol/mouse)?
Its value is 8.16E−1 MBq-h/MBq.

And the “Kinetics value, Stomach” value (2.5 nmol/mouse)?
Its value is 1.41E−1 MBq-h/MBq.

What about the “Kinetics value, Tumor” value (2.5 nmol/mouse) of the same compound?
The value was 4.13E0 MBq-h/MBq.

What about the “Organ doses, Blood” value (2.5 nmol/mouse) of the same compound?
Its value is 1.08E02 mGy/MBq.

What about the “Organ doses, Bone Marrow” value (2.5 nmol/mouse) of the same compound?
The value was 4.18E01 mGy/MBq.

And the “Organ doses, Heart” value (2.5 nmol/mouse)?
Its value is 4.14E01 mGy/MBq.

And the “Organ doses, Intestines” value (2.5 nmol/mouse)?
Its value is 4.36E01 mGy/MBq.

What about the “Organ doses, Kidneys” value (2.5 nmol/mouse) of the same compound?
The value was 1.49E02 mGy/MBq.

What about the “Organ doses, Liver” value (2.5 nmol/mouse) of the same compound?
Its value is 9.44E01 mGy/MBq.

And the “Organ doses, Lung” value (2.5 nmol/mouse)?
The value was 4.09E01 mGy/MBq.

What about the “Organ doses, Spleen” value (2.5 nmol/mouse) of the same compound?
The value was 5.03E01 mGy/MBq.

And the “Organ doses, Stomach” value (2.5 nmol/mouse)?
The value was 1.82E01 mGy/MBq.

What about the “Organ doses, Tumor” value (2.5 nmol/mouse) of the same compound?
Its value is 1.74E02 mGy/MBq.

What about the “Kinetics value, Blood” value (5.0 nmol/mouse) of the same compound?
Its value is 6.94E−1 MBq-h/MBq.

And the “Kinetics value, Bone Marrow” value (5.0 nmol/mouse)?
Its value is 4.27E−2 MBq-h/MBq.

What about the “Kinetics value, Heart” value (5.0 nmol/mouse) of the same compound?
The value was 8.78E−2 MBq-h/MBq.

And the “Kinetics value, Intestines” value (5.0 nmol/mouse)?
The value was 1.09E−1 MBq-h/MBq.

What about the “Kinetics value, Kidneys” value (5.0 nmol/mouse) of the same compound?
Its value is 1.04E0 MBq-h/MBq.

And the “Kinetics value, Liver” value (5.0 nmol/mouse)?
The value was 3.74E0 MBq-h/MBq.

What about the “Kinetics value, Lung” value (5.0 nmol/mouse) of the same compound?
Its value is 3.00E−1 MBq-h/MBq.

And the “Kinetics value, Spleen” value (5.0 nmol/mouse)?
The value was 1.40E+0 MBq-h/MBq.

What about the “Kinetics value, Stomach” value (5.0 nmol/mouse) of the same compound?
Its value is 1.18E−1 MBq-h/MBq.

And the “Kinetics value, Tumor” value (5.0 nmol/mouse)?
Its value is 5.59E0 MBq-h/MBq.

What about the “Organ doses, Blood” value (5.0 nmol/mouse) of the same compound?
The value was 9.32E01 mGy/MBq.

And the “Organ doses, Bone Marrow” value (5.0 nmol/mouse)?
The value was 3.6E01 mGy/MBq.

And the “Organ doses, Heart” value (5.0 nmol/mouse)?
The value was 2.10E01 mGy/MBq.

What about the “Organ doses, Intestines” value (5.0 nmol/mouse) of the same compound?
Its value is 2.22E01 mGy/MBq.

What about the “Organ doses, Kidneys” value (5.0 nmol/mouse) of the same compound?
Its value is 1.07E02 mGy/MBq.

And the “Organ doses, Liver” value (5.0 nmol/mouse)?
Its value is 1.00E02 mGy/MBq.

What about the “Organ doses, Lung” value (5.0 nmol/mouse) of the same compound?
The value was 2.61E01 mGy/MBq.

And the “Organ doses, Spleen” value (5.0 nmol/mouse)?
Its value is 1.11E02 mGy/MBq.

What about the “Organ doses, Stomach” value (5.0 nmol/mouse) of the same compound?
The value was 1.72E01 mGy/MBq.

And the “Organ doses, Tumor” value (5.0 nmol/mouse)?
Its value is 1.61E02 mGy/MBq.

What about the “Kinetics value, Blood” value (10.0 nmol/mouse) of the same compound?
The value was 9.85E−1 MBq-h/MBq.

And the “Kinetics value, Bone Marrow” value (10.0 nmol/mouse)?
The value was 2.92E−02 MBq-h/MBq.

And the “Kinetics value, Heart” value (10.0 nmol/mouse)?
The value was 9.09E−2 MBq-h/MBq.

And the “Kinetics value, Intestines” value (10.0 nmol/mouse)?
Its value is 1.33E−1 MBq-h/MBq.

And the “Kinetics value, Kidneys” value (10.0 nmol/mouse)?
Its value is 4.86E−01 MBq-h/MBq.

And the “Kinetics value, Liver” value (10.0 nmol/mouse)?
The value was 3.00E+0 MBq-h/MBq.

And the “Kinetics value, Lung” value (10.0 nmol/mouse)?
The value was 2.40E−1 MBq-h/MBq.

And the “Kinetics value, Spleen” value (10.0 nmol/mouse)?
Its value is 1.30E+0 MBq-h/MBq.

And the “Kinetics value, Stomach” value (10.0 nmol/mouse)?
Its value is 8.87E−2 MBq-h/MBq.

What about the “Organ doses, Blood” value (10.0 nmol/mouse) of the same compound?
Its value is 1.09E02 mGy/MBq.

And the “Organ doses, Bone Marrow” value (10.0 nmol/mouse)?
The value was 5.61E01 mGy/MBq.

What about the “Organ doses, Heart” value (10.0 nmol/mouse) of the same compound?
Its value is 1.97E01 mGy/MBq.

What about the “Organ doses, Intestines” value (10.0 nmol/mouse) of the same compound?
The value was 1.89E01 mGy/MBq.

And the “Organ doses, Kidneys” value (10.0 nmol/mouse)?
The value was 7.57E01 mGy/MBq.

And the “Organ doses, Liver” value (10.0 nmol/mouse)?
Its value is 9.11E01 mGy/MBq.

What about the “Organ doses, Lung” value (10.0 nmol/mouse) of the same compound?
The value was 2.28E01 mGy/MBq.

And the “Organ doses, Spleen” value (10.0 nmol/mouse)?
Its value is 7.05E01 mGy/MBq.

What about the “Organ doses, Stomach” value (10.0 nmol/mouse) of the same compound?
Its value is 1.12E01 mGy/MBq.

And the “Organ doses, Tumor” value (10.0 nmol/mouse)?
The value was 1.50E02 mGy/MBq.
